US6800101B2, “Deactivatable biocides for hydrocarbonaceous products” (priority 2001, dated 2004)

Tested on: bacteria
Assay: Neutralization of biocides with H2O2 and NH4Cl
Assay type: cell-based
Details: five times molar excess

## H2O2
  neutralizing biocides (glutaraldehyde): not effective

## NH4Cl
  neutralizing biocides (glutaraldehyde): not effective
